Assay results reported in PubChem BioAssay AID818 (SRMLSC, 2007).
Only a part is listed here, and it is no random draw. Activity calls are given as the source filed them.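 Rule for the calls: active = viability at or under a set limit, the compound median less 4 SD (cut at about 6% in these data); inactive = the rest.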

Test: primary screen for suppressors of beta-catenin knockout HCT116 cell growth, colon tumor, human (AID 818);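 note: 0% = Hyamine 1622 control at 20 µM and 100% = untreated cell control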
Conditions: CellTiter-Glo, 60 h, at 10 µM, active compounds read low

SMILES | viability
CN(C)CCOC(=O)C(O)(c1ccccc1)C1CCCC1 (centres undefined) | inactive: 101%
COc1ccc(OP(C)(=O)Nc2ccccn2)cc1 (centres undefined) | inactive: 108%
Cc1c(NP(C)(=O)Oc2ccc(C(C)C)cc2)c(=O)n(-c2ccccc2)n1C (centres undefined) | inactive: 101%
CCc1ccc(OP(C)(=O)O)cc1 | inactive: 82.9%
COc1ccccc1OP(C)(=O)Nc1ccc(C)cc1C (centres undefined) | inactive: 96%
CP(=O)(Nc1ccccn1)Oc1ccccc1 (centres undefined) | inactive: 95.4%
COc1ccc(OP(C)(=O)Nc2ccccc2Br)cc1 (centres undefined) | inactive: 101%
COc1ccccc1OP(C)(=O)Nc1ccc(C)c(C)c1 (centres undefined) | inactive: 103%
Cc1nc2ccc3ccccc3c2o1.O=[N+]([O-])c1cc([N+](=O)[O-])c(O)c([N+](=O)[O-])c1 | inactive: 88.1%
CP(=O)(OC12CC3CC(CC(C3)C1)C2)OC12CC3CC(CC(C3)C1)C2 | inactive: 78.8%
CCOC(=O)c1ccc(NP(C)(=O)Oc2ccc(Cl)cc2)cc1 (centres undefined) | inactive: 97.8%
COc1ccc(OP(C)(=O)Nc2ccc(Br)cc2)cc1 (centres undefined) | inactive: 91%
CCN(CC)CC(O)COC(=O)C(O)(c1ccccc1)C1CCCCC1 (centres undefined) | inactive: 102%
CP(=O)(Oc1ccccc1)N1CCOC1=O (centres undefined) | inactive: 96.7%
CP(=O)(Nc1ccc(Cl)cc1)Oc1ccc(F)cc1 (centres undefined) | inactive: 76.9%
CC(C)(C)c1ccc(OP(C)(=O)O)cc1 | inactive: 91%
CCOP(C)(=S)SCC(=O)NC(C)(CC)C(=O)O (centres undefined) | inactive: 78.4%
CP(=O)(Nc1ccc2c(c1)OCCO2)Oc1ccccc1 (centres undefined) | inactive: 94.5%
Cc1ccccc1NP(C)(=O)Nc1ccccc1C | inactive: 87.8%
COc1ccc(OP(C)(=O)Nc2cccc(Br)c2)cc1 (centres undefined) | inactive: 89.3%
CN(C)CCOC(=O)C(O)(c1ccccc1)C1CCCCC1 (centres undefined) | inactive: 108%
CCOC(=O)c1ccc(NP(C)(=O)Oc2ccc(F)cc2)cc1 (centres undefined) | inactive: 84.4%
CCN(CC)CCCOC(=O)C(O)(c1ccccc1)C1CCCCC1 (centres undefined) | inactive: 88.6%
CP(=O)(Nc1ccccc1)Oc1ccc(F)cc1 (centres undefined) | inactive: 109%
CC(C)c1ccc(OP(C)(=O)Nc2ccc(SC(F)(F)F)cc2)cc1 (centres undefined) | inactive: 70.3%

SMILES | viability
CP(=O)(Nc1ccccc1F)Oc1ccccc1 (centres undefined) | inactive: 95.1%
O=C(OCCN1CCN(CCOCc2ccccc2)CC1)C(O)(c1ccccc1)c1ccccc1 | inactive: 84.9%
Cc1cc(C)cc(OP(C)(=O)Nc2ccc(C)cc2C)c1 (centres undefined) | inactive: 94.3%
CCOC(=O)c1ccc(NP(C)(=O)Oc2cc(C)cc(C)c2)cc1 (centres undefined) | inactive: 62.8%
Cc1cc(C)cc(OP(C)(=O)Nc2ccccn2)c1 (centres undefined) | inactive: 87.7%
Cc1ccc(C)c(NP(C)(=O)Oc2ccccc2)c1 (centres undefined) | inactive: 94.1%
CC1=NCCc2c1[nH]c1ccccc21.O=[N+]([O-])c1cc([N+](=O)[O-])c(O)c([N+](=O)[O-])c1 | inactive: 94.8%
CN1CCCCC1COC(=O)C1(O)c2ccccc2CCc2ccccc21 (centres undefined) | inactive: 75.3%
COc1ccccc1OP(C)(=O)Nc1c(C)cccc1C (centres undefined) | inactive: 106%
CP(=O)(Nc1ccc(SC(F)(F)F)cc1)Oc1ccccc1 (centres undefined) | inactive: 71.6%
Cc1nc2ccc3ccccc3c2s1.O=[N+]([O-])c1cc([N+](=O)[O-])c(O)c([N+](=O)[O-])c1 | inactive: 101%
Cc1cccc(C)c1OP(C)(=O)Nc1ccc(SC(F)(F)F)cc1 (centres undefined) | inactive: 31.9%
Cc1cc(C)cc(OP(C)(=O)Nc2ccc(SC(F)(F)F)cc2)c1 (centres undefined) | inactive: 87.9%
CP(=O)(NC(=O)Nc1ccccc1)Oc1ccccc1 (centres undefined) | inactive: 97%
CCOP(C)(=S)SCC(=O)NC(C)C(=O)O (centres undefined) | inactive: 97.5%
CCOC(=O)c1ccc(NP(C)(=O)Oc2ccc(OC)cc2)cc1 (centres undefined) | inactive: 94.8%
CP(=O)(Nc1ccccn1)Oc1ccc(Cl)cc1 (centres undefined) | inactive: 102%
CP(=S)(Nn1cnnc1)Oc1ccccc1 (centres undefined) | inactive: 103%
CP(=O)(Nc1ccccc1Br)Oc1ccccc1 (centres undefined) | inactive: 90.7%
CC(C)(C)c1ccc(OP(C)(=O)Nc2ccc(SC(F)(F)F)cc2)cc1 (centres undefined) | inactive: 81.9%
CCOC(=O)c1ccc(NP(C)(=O)Oc2ccccc2)cc1 (centres undefined) | inactive: 86.1%
Cc1ccc(NP(C)(=O)Oc2ccccc2)c(C)c1 (centres undefined) | inactive: 93.9%
COc1ccccc1OP(C)(=O)Nc1ccc(C)cc1 (centres undefined) | inactive: 98%
COc1ccc(OP(C)(=O)Nc2cccc(F)c2)cc1 (centres undefined) | inactive: 97.5%
